Values quoted from earlier work in patent US20030176652A1, “Human and mouse beta-defensins, antimicrobial peptides” (priority 2001, published 2003).

How the values were obtained:
[1] = tested on: Staphylococcus coagulase f; design: MIC90: unit not given beside the values
[2] = tested on: Bordetella parapertussis; design: unit not given beside the values
[3] = Staphylococcus coagulase f (non β-lactamase producer)
[4] = Staphylococcus coagulase f (β-lactamase producer)

Question: For `CC[C@H]1OC(=O)[C@H](C)[C@@H](O[C@H]2C[C@@](C)(OC)[C@@H](O)[C@H](C)O2)[C@H](C)[C@@H](O[C@@H]2O[C@H](C)C[C@H](N(C)C)[C@H]2O)[C@](C)(O)C[C@@H](C)C(=O)[C@H](C)[C@@H](O)[C@]1(C)O` [ERYTHROMYCIN, erythromycin], which MIC90 [1, 3] is on record?
Answer: 0.25

Question: And the Range [1, 3]?
Answer: 0.03-8

Question: And the MIC90 [1, 4]?
Answer: 4

Question: And the Range [1, 4]?
Answer: 0.06-16

Question: And the MIC90 [2]?
Answer: 0.25

Where two headings read alike, the source gives them in different places.
